In patent US11524977B2, “Ultrasound-assisted simulated digestion method of milk protein active peptide and application thereof in health foods” (JIANGSU UNIVERSITY, priority 2017, dated 2022):
pIC50: −log10 of the molar value.

The chains behind the UniProt entries cited, without tags or fusion partners. Residues count along the entry.
UniProt P12821, 30-1306, species assumed: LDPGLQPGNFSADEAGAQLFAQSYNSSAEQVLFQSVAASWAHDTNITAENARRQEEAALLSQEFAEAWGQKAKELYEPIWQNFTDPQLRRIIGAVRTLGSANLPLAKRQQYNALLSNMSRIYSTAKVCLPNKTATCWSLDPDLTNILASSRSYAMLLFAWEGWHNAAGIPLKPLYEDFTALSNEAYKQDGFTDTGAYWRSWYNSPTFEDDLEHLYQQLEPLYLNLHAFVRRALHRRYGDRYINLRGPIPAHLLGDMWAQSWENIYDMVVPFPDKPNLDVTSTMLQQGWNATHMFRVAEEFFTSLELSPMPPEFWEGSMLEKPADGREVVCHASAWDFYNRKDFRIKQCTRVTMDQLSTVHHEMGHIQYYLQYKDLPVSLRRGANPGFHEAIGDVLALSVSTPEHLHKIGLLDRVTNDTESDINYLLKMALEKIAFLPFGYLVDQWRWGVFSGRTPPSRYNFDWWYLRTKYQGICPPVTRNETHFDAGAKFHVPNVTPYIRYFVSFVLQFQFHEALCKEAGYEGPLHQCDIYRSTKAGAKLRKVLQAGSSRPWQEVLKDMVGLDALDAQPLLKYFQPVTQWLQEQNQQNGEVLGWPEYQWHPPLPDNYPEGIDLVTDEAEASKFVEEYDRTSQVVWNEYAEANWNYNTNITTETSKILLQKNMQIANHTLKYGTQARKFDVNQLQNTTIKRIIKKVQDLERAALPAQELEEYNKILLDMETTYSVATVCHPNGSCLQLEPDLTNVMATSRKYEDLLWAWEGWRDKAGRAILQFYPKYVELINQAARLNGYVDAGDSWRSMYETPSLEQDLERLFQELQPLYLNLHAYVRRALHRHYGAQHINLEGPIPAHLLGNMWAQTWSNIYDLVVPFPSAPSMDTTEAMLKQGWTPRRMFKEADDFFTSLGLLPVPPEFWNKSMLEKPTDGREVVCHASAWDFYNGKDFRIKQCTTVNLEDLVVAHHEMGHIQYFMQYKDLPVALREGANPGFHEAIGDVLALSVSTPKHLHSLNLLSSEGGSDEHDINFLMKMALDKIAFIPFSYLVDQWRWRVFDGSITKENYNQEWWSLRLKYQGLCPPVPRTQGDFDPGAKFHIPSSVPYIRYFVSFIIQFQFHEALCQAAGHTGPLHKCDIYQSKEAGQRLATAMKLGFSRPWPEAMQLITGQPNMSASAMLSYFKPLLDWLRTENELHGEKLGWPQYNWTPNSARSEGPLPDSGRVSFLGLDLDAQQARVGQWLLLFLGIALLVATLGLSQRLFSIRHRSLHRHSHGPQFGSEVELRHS

Target: ACE (Homo sapiens, UniProt P12821)
Type: biochemical
Conditions: read-out: IC50 (ACE inhibition)

With Leu-Ser-Leu-Pro [LSLP] the pIC50 was 4.68.
